Measured values taken from patent US5118392A, “Separation of trichloroethylene from a butyl alcohol by extractive distillation” (priority 1991, dated 1992).

What was measured:
[1] = Vapor-liquid equilibrium still, t-butanol-trichloroethylene azeotrope with extractive distillation agent; type: physicochemical; settings: trichloroethylene from t-butanol, Table 10
From the text: The data in Tables 2, 3, 5, 7, 8, 10 and 11 was obtained in a vapor-liquid equilibrium still. In every case, the starting mixture was the trichloroethylene-butanol azeotrope. The relative volatilities are listed for each of the agents.
Seventy grams of the t-butanol-trichloroethylene azeotrope and 30 grams of n-butyl acetate were charged to the vapor-liquid equilibrium still and refluxed for fourteen hours.

[2] = Vapor-liquid equilibrium still, trichloroethylene-n-butanol azeotrope with extractive distillation agent; type: physicochemical; settings: trichloroethylene from n-butanol, Table 2

| Substance | Relative Volatility [1] | Relative Volatility [2] |
| --- | --- | --- |
| 3-Ethoxy propionate | 1.5 |  |
| Methyl amyl alcohol |  | 1.7 |
